Earlier results as cited in patent US20240207277A1, “Methods For Treating Drug and Vaccine Induced Immune Thrombocytopenia by Administering Specific Compounds” (Principia Biopharma Inc., priority 2021, published 2024).

Conditions: anticoagulation and IVIg or plasma exchange failed; cited from earlier work

B1: Eculizumab: anti-C5 monoclonal antibody (antibody, chains of the INN, looked up)
heavy: QVQLVQSGAEVKKPGASVKVSCKASGYIFSNYWIQWVRQAPGQGLEWMGEILPGSGSTEYTENFKDRVTMTRDTSTSTVYMELSSLRSEDTAVYYCARYFFGSSPNWYFDVWGQGTLVTVSSASTKGPSVFPLAPCSRSTSESTAALGCLVKDYFPEPVTVSWNSGALTSGVHTFPAVLQSSGLYSLSSVVTVPSSNFGTQTYTCNVDHKPSNTKVDKTVERKCCVECPPCPAPPVAGPSVFLFPPKPKDTLMISRTPEVTCVVVDVSQEDPEVQFNWYVDGVEVHNAKTKPREEQFNSTYRVVSVLTVLHQDWLNGKEYKCKVSNKGLPSSIEKTISKAKGQPREPQVYTLPPSQEEMTKNQVSLTCLVKGFYPSDIAVEWESNGQPENNYKTTPPVLDSDGSFFLYSRLTVDKSRWQEGNVFSCSVMHEALHNHYTQKSLSLSLG
light: DIQMTQSPSSLSASVGDRVTITCGASENIYGALNWYQQKPGKAPKLLIYGATNLADGVPSRFSGSGSGTDFTLTISSLQPEDFATYYCQNVLNTPLTFGQGTKVEIKRTVAAPSVFIFPPSDEQLKSGTASVVCLLNNFYPREAKVQWKVDNALQSGNSQESVTEQDSKDSTYSLSSTLTLSKADYEKHKVYACEVTHQGLSSPVTKSFNRGEC
In the case of B1, the “clinical outcome in 2 patients with VITT” value is given as “rapidly improved”.
